Source: PubChem BioAssay
Rtt109 Vps75: inhibitors of C. albicans Rtt109/Vps75 HAT, primary screen, biochemical, ThioGlo CoA-SH fluorescence, plate reader; 330,000 tested, 0.16% active; Histone acetyltransferase RTT109 (Candida albicans (strain SC5314 / ATCC MYA-2876)), …; inhibition, % at 34.9 µM; AID 540336, 2011; purified Rtt109/Vps75, 4 h;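 active = inhibition of at least 50% in every replicate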
C2C12 statin: suppressors of statin myotoxicity in C2C12 myotubes, primary screen, cell-based, single point, plate reader; C2C12 myotubes + simvastatin, ATP luminescence, 48 h; scaled: DMSO 0, geranylgeraniol control 100; rescue of ATP level, % at 7.49 µM; 330,000 tested, 0.78% active; AID 602340, 2012;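 active = mean ATP rescue above about 67%, or every replicate alone reaching that limit, limit read from the data, passing the limit was not always enough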;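 note: myotubes were challenged with 10 µM simvastatin during compound exposure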
UUG fidelity: alters start codon recognition fidelity in yeast; S. cerevisiae UUG-firefly luciferase reporter, luminescence/redox ratio; activity score, % at 18.7 µM; hit rate 0.13% among 350,000;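 active = replicate mean at a twofold rise or more, about +100% in these data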;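 also: firefly luciferase made from a UUG start codon reports start codon fidelity; reporter light over untreated wells divided by growth signal over untreated wells; some hits fall short of that in this replicate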
Cneo AK release: Cryptococcus neoformans cell lysis inducers, primary screen, AK release luminescence, single concentration; C. neoformans lysis, adenylate kinase release luminescence, 4 h; normalised: neutral wells 0, clomiphene wells 100; lysis activity, % at 15 µM; 360,000 tested, 0.2% active; AID 651654, 2012;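 active = mean lysis activity across replicates of at least 80%, whatever share of replicates individually reach that level; inactive = mean lysis activity below 80%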
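Schedule: static 4 h at 37 °C with compound, 1 h detection; system: C. neoformans cells; benchmarks: Clomiphene as positive control; buffer or medium: fresh YPD medium; measure: luminescence rise reflecting yeast cell lysis; measured by: luminescent adenylate kinase detection reagent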
CDK5 inh: inhibitors of human CDK5/p35 kinase, primary screen, biochemical, single concentration. Cyclin-dependent kinase 5 (Homo sapiens) + Cyclin-dependent kinase 5 activator 1 (Homo …. Recombinant CDK5/p35, ADP-Glo luminescence, 60 min. inhibition, % at 10 µM. 330,000 tested, 0.01% active. AID 488839, 2010;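 active = highest replicate inhibition of at least 50% and at least 75% of replicates reaching 50%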;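 note: plate controls were DMSO neutral control for no effect and GW8510 at 10 µM for full effect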
* = called active by the depositor. An excerpt weighted towards active compounds, which were near 1% of everything screened.

How did COc1cccc(S(=O)(=O)N2CC[C@@H]3[C@H]2c2cc(Br)ccc2N[C@@H]3CO)c1 do in these assays?
C2C12 statin: 28; UUG fidelity: -5; Cneo AK release: -6

Results for COc1ccc(NC(=O)N(C)C[C@H]2Oc3c(NC(=O)c4ccc(-c5nccs5)cc4)cccc3C(=O)N([C@@H](C)CO)C[C@H]2C)cc1 ?
UUG fidelity: 4; Cneo AK release: 2

How did C[C@H](CO)N1C[C@H](C)[C@@H](CN(C)C(=O)NC2CCCCC2)OCCCC[C@H](C)Oc2ccc(NC(=O)Nc3cccc4ccccc34)cc2C1=O do in these assays?
C2C12 statin: 122*; UUG fidelity: -7; Cneo AK release: -2

How did CC(C)NC(=O)Nc1ccc2c(c1)C(=O)N([C@@H](C)CO)C[C@@H](C)[C@@H](CN(C)C(=O)CCC(F)(F)F)OCCCC[C@H](C)O2 do in these assays?
Cneo AK release: -2

How did C[C@@H]1CCCCO[C@@H](CN(C)C(=O)NC2CCCCC2)[C@H](C)CN([C@H](C)CO)C(=O)c2cc(NC(=O)C3CCCCC3)ccc2O1 do in these assays?
C2C12 statin: 17; UUG fidelity: -5; Cneo AK release: -2

How did C[C@@H]1CCCCO[C@@H](CN(C)C(=O)C2CCCCC2)[C@H](C)CN([C@@H](C)CO)C(=O)c2cc(NC(=O)c3ccncc3)ccc2O1 do in these assays?
C2C12 statin: 95*; UUG fidelity: -2; Cneo AK release: 0

What do the screens show for `C[C@@H]1CN([C@@H](C)CO)C(=O)c2cc(NC(=O)C3CCCCC3)ccc2O[C@@H](C)CCCCO[C@@H]1CN(C)C(=O)NC1CCCCC1`?
C2C12 statin: -48; UUG fidelity: 8; Cneo AK release: 97*

How did CC(C)NC(=O)Nc1ccc2c(c1)C(=O)N([C@@H](C)CO)C[C@H](C)[C@@H](CN(C)C(=O)CCC(F)(F)F)OCCCC[C@H](C)O2 do in these assays?
Cneo AK release: 96*

What do the screens show for `C[C@@H]1CN([C@@H](C)CO)C(=O)c2cc(NC(=O)Nc3cccc4ccccc34)ccc2O[C@@H](C)CCCCO[C@@H]1CN(C)C(=O)NC1CCCCC1`?
C2C12 statin: 51; UUG fidelity: -1; Cneo AK release: -2

Results for C[C@H]1CN([C@@H](C)CO)C(=O)c2cc(C3=CCCC3)cnc2O[C@H]1CN(C)C(=O)c1ccccc1 ?
C2C12 statin: 0; UUG fidelity: 11; Cneo AK release: 0

How did CO[C@H](CN(C)S(=O)(=O)c1ccc(Cl)cc1)[C@H](C)CN(Cc1ccccc1Cl)[C@H](C)CO do in these assays?
C2C12 statin: -15; Cneo AK release: -5

How did CN(C)C(=O)C[C@@H]1C=C[C@H](NC(=O)C2CCC2)[C@H](CO)O1 do in these assays?
C2C12 statin: -13; UUG fidelity: 0; Cneo AK release: -1

Among those listed so far, two contain fluorine.
How did CC(C)NC(=O)Nc1ccc2c(c1)C(=O)N([C@@H](C)CO)C[C@@H](C)[C@@H](CN(C)C(=O)CCC(F)(F)F)OCCCC[C@H](C)O2 do in these assays?
Cneo AK release: -2

How did CC(C)NC(=O)Nc1ccc2c(c1)C(=O)N([C@@H](C)CO)C[C@H](C)[C@@H](CN(C)C(=O)CCC(F)(F)F)OCCCC[C@H](C)O2 do in these assays?
Cneo AK release: 96*

The main list resumes, repeating the 2 entries before the break.
How did CO[C@H](CN(C)S(=O)(=O)c1ccc(Cl)cc1)[C@H](C)CN(Cc1ccccc1Cl)[C@H](C)CO do in these assays?
C2C12 statin: -15; Cneo AK release: -5

How did CN(C)C(=O)C[C@@H]1C=C[C@H](NC(=O)C2CCC2)[C@H](CO)O1 do in these assays?
C2C12 statin: -13; UUG fidelity: 0; Cneo AK release: -1

How did C[C@@H]1CCCCO[C@@H](CN(C)C(=O)Nc2cccc3ccccc23)[C@H](C)CN([C@H](C)CO)C(=O)c2cc(NC(=O)c3ccncc3)ccc2O1 do in these assays?
C2C12 statin: 135*; UUG fidelity: -8; Cneo AK release: -3

How did CC(C)NC(=O)Nc1ccc2c(c1)C(=O)N([C@@H](C)CO)C[C@@H](C)[C@@H](CN(C)C(=O)NC1CCCCC1)OCCCC[C@H](C)O2 do in these assays?
Cneo AK release: 92*

How did C[C@@H]1CCCCO[C@H](CN(C)C(=O)C2CCCCC2)[C@H](C)CN([C@H](C)CO)C(=O)c2cc(NS(=O)(=O)c3ccccc3)ccc2O1 do in these assays?
C2C12 statin: 89*; UUG fidelity: 5; Cneo AK release: -1

How did COc1ccc(CNC(=O)C[C@@H]2C[C@@H]3c4cc(NC(=O)CC5CC5)ccc4O[C@@H]3[C@H](CO)O2)cc1 do in these assays?
C2C12 statin: -3; UUG fidelity: -23; Cneo AK release: 2

How did O=[N+]([O-])/C=C/c1c(OCc2ccccc2)ccc2ccccc12 do in these assays?
Rtt109 Vps75: 11; C2C12 statin: -4; UUG fidelity: 286*; Cneo AK release: -15; CDK5 inh: 4

Results for CCOC(=O)COc1ccc2ccccc2c1/C=C/[N+](=O)[O-] ?
Rtt109 Vps75: -6; CDK5 inh: 0

Results for c1ccc2c(c1)CCN(Cc1nnnn1Cc1ccc3c(c1)OCO3)C2 ?
Rtt109 Vps75: 0; C2C12 statin: 125*; UUG fidelity: -3; Cneo AK release: 3; CDK5 inh: 0

Results for c1ccc(Cn2nnnc2CN2CCN(Cc3ccc4c(c3)OCO4)CC2)cc1 ?
Rtt109 Vps75: 3; C2C12 statin: 37; UUG fidelity: -6; Cneo AK release: 0; CDK5 inh: 1

How did O=c1[nH]c2ccccc2c2oc(CCl)nc12 do in these assays?
Rtt109 Vps75: 78*; C2C12 statin: 5; CDK5 inh: 1

What do the screens show for `COc1ccc(Cl)cc1NC(=O)CC(C)=O`?
Rtt109 Vps75: 8; C2C12 statin: 92*; UUG fidelity: -5; Cneo AK release: 5; CDK5 inh: -1

How did CCOC(=O)CC(=O)Nc1cc(Cl)ccc1O do in these assays?
Rtt109 Vps75: 4; C2C12 statin: 84*; UUG fidelity: -12; Cneo AK release: 8; CDK5 inh: 1

Results for COc1ccc(Cl)cc1NC(=O)COC(C)=O ?
Rtt109 Vps75: 11; CDK5 inh: 3

How did O=C(O)CC(=O)Nc1cc(Cl)ccc1O do in these assays?
C2C12 statin: -2; UUG fidelity: -24; Cneo AK release: -5; CDK5 inh: 1

What do the screens show for `CCOc1cc(S(=O)(=O)N2CCC(Cc3ccccc3)CC2)c(OCC)cc1-n1cnnn1`?
Rtt109 Vps75: 55*; C2C12 statin: 8; UUG fidelity: -11; Cneo AK release: 1; CDK5 inh: 0

How did O=C(C[C@H]1CC[C@H]2[C@@H](COC[C@@H](O)CN2S(=O)(=O)c2ccc(Oc3ccccc3)cc2)O1)NCCN1CCCCC1 do in these assays?
C2C12 statin: -3; UUG fidelity: -7; Cneo AK release: 0

What do the screens show for `COc1ccc(NC(=O)CC2C(=O)N(c3cccc(OC)c3)C(=O)N2CCC(C)C)cc1` (configuration not stated)?
Rtt109 Vps75: 3; C2C12 statin: 93*; UUG fidelity: -6; Cneo AK release: 3; CDK5 inh: 0

Results for COc1ccc(NC(=O)CC2C(=O)N(c3cccc(OC)c3)C(=O)N2C(C)C)cc1 (configuration not stated) ?
Rtt109 Vps75: -1; C2C12 statin: 1; UUG fidelity: -27; Cneo AK release: 3; CDK5 inh: 2
